## scFv variants of Ab-14 (light chain) against a SARS-CoV-2 spike peptide

Source: Engelhart et al. 2022 (doi:10.1038/s41597-022-01779-4), MIT Lincoln Laboratory and A-Alpha Bio; data file from the FLAb repository.

Target: peptide PDVDLGDISGINAS, taken from heptad repeat 2 (HR2) of SARS-CoV-2 spike.

Parent scFv Ab-14: VH joined to VL by the linker GGGGSGGGGSGGGGS. Changes lie in the light chain CDRs alone.
VH: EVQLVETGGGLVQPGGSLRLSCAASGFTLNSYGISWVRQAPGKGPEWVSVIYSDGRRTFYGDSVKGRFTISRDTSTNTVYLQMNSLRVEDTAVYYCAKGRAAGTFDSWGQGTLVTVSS
VL: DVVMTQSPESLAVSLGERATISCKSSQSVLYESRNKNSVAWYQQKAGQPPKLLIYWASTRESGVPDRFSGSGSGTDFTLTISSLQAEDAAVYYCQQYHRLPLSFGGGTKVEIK

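The starting antibody came from a phage panning campaign against this peptide. The library (AAYL50) carries one to three amino acid substitutions per variant, with no insertions or deletions. In AlphaSeq, yeast of one mating type display the scFv and yeast of the other type display the target. Binding brings cells together so that they mate, and sequencing counts the barcode pairs among the diploids. The ratio of observed to expected reads was calibrated, replicate by replicate, on BCL2-family standards whose Kd was known from biolayer interferometry. Mating was done three times.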

Changes read parent residue, position, new residue, counted from the first residue of the VL shown.
Numbers give log10(Kd / nM), so 0 is 1 nM and 3 is 1 µM. Smaller is tighter.
The mean shown is taken over the replicates in which the pair was detected.
An entry "no signal" has no value in the source: the pair was not observed among the diploids in any replicate. This suggests poor binding but is not conclusive.

Variant R34T S58F L100M showed 2.75 (3 of 3 replicates; controls 2 of 9).
Variant Q27Y Y31E K36M showed 0.44 (3 of 3 replicates; controls 6 of 9).
Variant N35Y S38L S58W showed no signal (0 of 3 replicates; controls 0 of 9).
Variant S28C H98S R99N showed no signal (0 of 3 replicates; controls 0 of 9).
Variant V29H R34M L102D showed 2.28 (1 of 3 replicates; controls 0 of 9).
Variant S26C V29W S33K showed 4.03 (3 of 3 replicates; controls 2 of 9).
Variant E32C N35F R60I showed no signal (0 of 3 replicates; controls 0 of 9).
Variant S25K S33G Q96D showed 1.05 (3 of 3 replicates; controls 1 of 9).
Variant S28A Y31A showed 0.63 (3 of 3 replicates; controls 6 of 9).
Variant N35C Q96G H98N showed no signal (0 of 3 replicates; controls 4 of 9).
Variant Y31W S62K P101Y showed 2.58 (3 of 3 replicates; controls 1 of 9).
Variant A40T Q96S R99G showed no signal (0 of 3 replicates; controls 1 of 9).
Variant Q27A E32D P101I showed no signal (0 of 3 replicates; controls 0 of 9).
Variant L30G V39R S62K showed no signal (0 of 3 replicates; controls 1 of 9).
Variant Q95G Y97H H98R showed 4.86 (2 of 3 replicates; controls 3 of 9).
Variant L30F S58G R99A showed 1.30 (3 of 3 replicates; controls 0 of 9).
Variant S26N S58M L102D showed 2.19 (3 of 3 replicates; controls 4 of 9).
Variant K24H V29Y V39Q showed no signal (0 of 3 replicates; controls 0 of 9).
Variant S26F T59D L102A showed 4.20 (2 of 3 replicates; controls 2 of 9).
Variant L30Q R34F R60G showed 3.19 (2 of 3 replicates; controls 2 of 9).
Variant S26L Y31L R34W showed no signal (0 of 3 replicates; controls 0 of 9).
Variant S28G L30R R60W showed 3.83 (2 of 3 replicates; controls 5 of 9).
Variant Q27L A40N showed 5.32 (1 of 3 replicates; controls 0 of 9).
Variant Q27C N37S R60F showed 3.94 (1 of 3 replicates; controls 1 of 9).
Variant Q27A W56P H98S showed no signal (0 of 3 replicates; controls 2 of 9).
Variant S25I V39A A40K showed 3.38 (1 of 3 replicates; controls 3 of 9).
Variant S25I S26R A57G showed 0.39 (3 of 3 replicates; controls 3 of 9).
Variant S25V S28H S62N showed 1.99 (3 of 3 replicates; controls 1 of 9).
Variant Y31I Q96E L100M showed 3.54 (2 of 3 replicates; controls 1 of 9).
Variant R60F E61V S103G showed no signal (0 of 3 replicates; controls 0 of 9).
Variant N37H S38H P101V showed 4.40 (1 of 3 replicates; controls 0 of 9).
Variant S26K Y97M showed no signal (0 of 3 replicates; controls 0 of 9).
Variant K36Y T59S H98P showed 3.09 (2 of 3 replicates; controls 0 of 9).
Variant E61R S62L S103T showed 2.18 (3 of 3 replicates; controls 4 of 9).
Variant A40C Q95E Y97A showed 4.94 (2 of 3 replicates; controls 4 of 9).
Variant Y31T E61S L100S showed 2.41 (3 of 3 replicates; controls 2 of 9).
Variant Q27W N35Q A57P showed 2.25 (1 of 3 replicates; controls 0 of 9).
Variant Q27E A40L H98R showed no signal (0 of 3 replicates; controls 0 of 9).
Variant S38F V39E A57W showed 3.90 (1 of 3 replicates; controls 0 of 9).
Variant S28V Y97R R99K showed 5.29 (1 of 3 replicates; controls 0 of 9).
Variant N35M S38F A40Y showed 3.48 (1 of 3 replicates; controls 1 of 9).
Variant S26I R34H Y97T showed no signal (0 of 3 replicates; controls 1 of 9).
Variant R34F Q95A H98S showed 1.18 (3 of 3 replicates; controls 3 of 9).
Variant K24L W56N Q96L showed 0.69 (3 of 3 replicates; controls 1 of 9).
Variant R60P Y97H S103H showed no signal (0 of 3 replicates; controls 0 of 9).
Variant K24A Y31L H98P showed 2.29 (3 of 3 replicates; controls 5 of 9).
Variant T59P E61D H98S showed 4.05 (2 of 3 replicates; controls 3 of 9).
Variant K36H A40W E61K showed 3.33 (1 of 3 replicates; controls 2 of 9).
Variant V29T Q96R S103P showed 1.49 (3 of 3 replicates; controls 2 of 9).

Background: pairings of library AAYL50 with three empty control strains gave a value in 18% of cases (median 4.19, 5th percentile 2.99). Values in that range, when seen in few replicates, are hard to tell from nonspecific mating. For each scFv, signals with the empty controls are counted beside the result.
For reference, the parent read 0.65 as the reference entry and 1.68 as a member of this library.